{"source": "paper PMC10855781", "about": "(International Journal of Molecular Sciences, 2024)", "origin": "cited, not measured here", "key": {"[1]": {"system": "gastric adenocarcinoma or gastroesophageal junction adenocarcinoma", "from_the_text": "(§1) The beneficial properties of the oxime linkage have recently been leveraged for tumor therapy in a variety of other conjugates, which display other peptides, antibodies, polysaccharides or 19-nortestosterone as carriers. […] Both are ADCs consisting of a proprietar ..."}, "[2]": {"system": "HER-2 positive HCC1954 breast and NCI-N87 gastric cancer xenografts", "conditions": "mice; ref [116]", "from_the_text": "as §1"}, "[3]": {"system": "metastatic breast cancer patients"}, "[4]": {"conditions": "1.5 mg/kg every 3 weeks, ref [119]"}}}
{"substance": "ARX788", "values": [{"measurement": "ORR", "setting": "[1]; 1.3, 1.5 or 1.7 mg/kg every 3 weeks, 30 participants, ref [120]", "value": 37.9, "unit": "%"}, {"measurement": "patients incurring grade 3 AEs", "setting": "[1]; in vivo", "value": "four"}, {"measurement": "median PFS", "setting": "[1]; ref [120]", "value": 10.7, "unit": "months"}, {"measurement": "efficacy compared to trastuzumab emtansine (T-DM1)", "setting": "[2]", "value": "superior efficacy"}, {"measurement": "median progression free survival (PFS)", "setting": "[3]; [4]", "value": 17, "unit": "months"}, {"measurement": "objective response rate", "setting": "[3]; [4]", "value": 65.5, "unit": "%"}, {"measurement": "dose-limiting toxicities, drug-related deaths", "setting": "[3]; 0.33–1.5 mg/kg every 3 or 4 weeks, ref [119]", "value": "No dose-limiting toxicities or drug-related deaths"}, {"measurement": "frequency of grade ≥ 3 adverse events", "setting": "[3]; human, in vivo", "value": 11.6, "unit": "%"}, {"measurement": "frequency of hematological toxicities (grade ≥ 3)", "setting": "[3]; human, in vivo", "value": 1.4, "unit": "%"}]}
